Reference: US4342828A, “Method for producing substance capable of stimulating differentiation and proliferation of human granulopoietic stem cells” (Morinaga Milk Industry Co., Ltd., priority 1979, dated 1982)

Test system: monocytes and macrophages
Assay: CSF production by glycoprotein-treated human monocytes and macrophages (CSF activity of conditioned medium, human bone marrow colony formation)
Format: cell-based
Details: serum-free McCoy's 5A, 10^5 cells/ml, 3 days

Substance: human serum albumin: human serum albumin (Sigma Co.) added in an amount corresponding to that contained in the fraction media
- CSF activity (added amount 0.5 mg/ml (control: human serum albumin in corresponding amount)): 4 ± 1 number of colonies per 0.1 ml
- CSF activity (added amount 1.0 mg/ml (control: human serum albumin in corresponding amount)): 6 ± 2 number of colonies per 0.1 ml
- CSF activity (added amount 5.0 mg/ml (control: human serum albumin in corresponding amount)): 14 ± 2 number of colonies per 0.1 ml
- CSF activity (added amount 10.0 mg/ml (control: human serum albumin in corresponding amount)): 26 ± 1 number of colonies per 0.1 ml
